The assay addresses HSET full length protein (Homo sapiens (Human), UniProt Q9BW19). The assay can be described thus: HSET ADP-Glo Assay S - 3 μM ATP. As to conditions: read-out: COMBINED HSET ADP GLO IC50, 5 nM HSET, 70 μg/mL microtubule, 80 min at rt. The procedure:
Example 281: Testing compounds of the present invention for inhibitory activities against HSET—HSET ADP-Glo Assay S—3 μM ATP
Reagents: (+4° C. Storage) • Paclitaxel Prod.No.TXD.01 2 mM in DMSO (from Universal Biologicals Cambridge). • Tubulin Protein (Pre-formed Microtubules): Bovine Brain Prod.No.MT001-XL Lot.025 10 mg/mL (from Universal Biologicals Cambridge).
Reagents: (−80° C. Storage) • MT001-XL—Tubulin Protein (Pre-formed Microtubules): Bovine Brain—reconstituted in buffer—15 mM PIPES pH7, 1 mM MgCl2, 20 μM paclitaxel (aliquots at 10 mg/mL) from Universal Biologicals Cambridge. • HSET full length protein—Current batch is FL HSET Prep1 (SEQ-000096_002-01_01) • Buffer is 20 mM Hepes pH 7.5, 200 mM NaCl, 2 mM TCEP, 5% glycerol (5 μL aliquots at 10.2 μM)
Reagents: (−20° C. Storage) • ADP-Glo Kinase Assay kit (Promega Prod.No.V9102) 10,000 assay points • ADP-Glo reagent (50 mL), Kinase Detection Reagent (100 mL), and Ultrapure ATP (10 mM) aliquoted […]

Amino acid sequences for entries named in this document (tags omitted).
UniProt Q9BW19, whole entry: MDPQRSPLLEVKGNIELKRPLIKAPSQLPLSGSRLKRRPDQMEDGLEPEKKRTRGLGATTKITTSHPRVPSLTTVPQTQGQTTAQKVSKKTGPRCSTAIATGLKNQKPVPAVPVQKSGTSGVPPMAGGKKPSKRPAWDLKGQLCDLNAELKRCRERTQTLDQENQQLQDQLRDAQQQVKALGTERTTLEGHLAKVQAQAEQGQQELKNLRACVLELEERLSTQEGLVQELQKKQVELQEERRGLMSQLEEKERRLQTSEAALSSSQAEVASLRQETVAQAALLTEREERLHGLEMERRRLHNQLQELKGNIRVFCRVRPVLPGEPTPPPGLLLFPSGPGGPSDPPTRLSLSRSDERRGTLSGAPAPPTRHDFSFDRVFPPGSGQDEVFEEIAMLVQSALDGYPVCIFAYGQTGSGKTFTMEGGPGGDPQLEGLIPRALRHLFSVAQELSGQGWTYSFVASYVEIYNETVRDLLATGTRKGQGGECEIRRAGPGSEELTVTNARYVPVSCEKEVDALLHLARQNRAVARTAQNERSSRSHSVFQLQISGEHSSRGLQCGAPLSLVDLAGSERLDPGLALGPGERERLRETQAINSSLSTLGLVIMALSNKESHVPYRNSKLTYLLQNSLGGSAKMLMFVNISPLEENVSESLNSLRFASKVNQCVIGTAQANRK

As to `CCOC(=O)c1sc(NC(=O)CCNC(=O)c2cccc(C(=O)OC)c2)nc1C`, the IC50 stood at 397 nM.
